For series [1], the system named is Rattus norvegicus. The series can be described thus: Drug level in rat plasma at 30 mg/kg after 8 day.
Series [2] relates to Rattus norvegicus. The series is described as follows: Drug level in rat plasma at 30 mg/kg after 1 day.

As a reminder, the AUC is concentration integrated over time. The low end stands for less exposure, the high end for more exposure. For the compound `C[C@H]1OC(=O)[C@@H]2C[C@@H]3C[C@H](O)CC[C@H]3[C@H](/C=C/c3ccc(-c4cccc(C(F)(F)F)c4)cn3)[C@H]12`, the AUC at 192 h in series [1] was 21.3 µg·h/mL. This compound also came in with an AUC at 24 h in series [2] of 21.7 µg·h/mL.

Source of the values: ChEMBL document CHEMBL1139225, “Metabolism-based identification of a potent thrombin receptor antagonist” (J Med Chem, 2007).
